Tested on: Corn

`CCOP(=S)(CC)Sc1ccccc1` (centres unmarked) was tested, and the “effect on corn before application of the herbicide” value (Examples 8-11, biocides and safeners PPI) was “slight early stunting and leaf malformation”.
“5-Oxazolecarboxylic acid, 2-<(2,2-dimethylethyl)amino>-4-(trifluoro-methyl)-, ethyl ester” was tested, and the “antidote activity” value (COUNTER with BEACON, PURSUIT (POE) or XRD-498 (PPI), Tables 29-37) was “active safeners”.

From patent EP0565593B1, “REDUCING PESTICIDAL INTERACTIONS IN CROPS” (priority 1990, dated 1992)
